The text below walks through data of ChEMBL document CHEMBL2429761, “Discovery of ML314, a Brain Penetrant Non-Peptidic β-Arrestin Biased Agonist of the Neurotensin NTR1 Receptor” (ACS Med Chem Lett, 2013).

Amino acid sequences for entries named in this document (tags omitted).
UniProt P30989, whole entry: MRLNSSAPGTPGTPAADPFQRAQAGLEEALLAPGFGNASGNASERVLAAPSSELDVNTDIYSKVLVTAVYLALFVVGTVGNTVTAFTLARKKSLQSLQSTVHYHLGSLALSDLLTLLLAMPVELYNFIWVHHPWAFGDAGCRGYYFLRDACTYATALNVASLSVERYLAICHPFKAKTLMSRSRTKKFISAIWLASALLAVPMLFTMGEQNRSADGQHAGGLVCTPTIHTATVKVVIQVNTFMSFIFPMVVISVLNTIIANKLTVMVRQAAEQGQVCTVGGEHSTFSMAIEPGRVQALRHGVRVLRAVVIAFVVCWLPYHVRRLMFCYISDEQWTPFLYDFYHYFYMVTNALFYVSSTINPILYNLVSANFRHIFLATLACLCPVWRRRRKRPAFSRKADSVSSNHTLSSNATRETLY

The experiment deals with Neurotensin receptor type 1 (Homo sapiens, UniProt P30989). The experiment can be described thus: Antagonist activity at NTR1 (unknown origin) expressed in human U2OS cells coexpressing beta-arrestin assessed as inhibition of ML314-induced effect by GFP reporter gene assay. The format is cell-based. On the technique in general: A reporter such as luciferase makes a cellular process visible.

Regarding `COc1cccc(OC)c1-c1cc(C(=O)NC2(C(=O)O)C3CC4CC(C3)CC2C4)nn1-c1ccc(C(=O)N(C)CCCN(C)C)cc1C(C)C` (stereo unspecified), the inhibition result was “Dose-dependent effect”.
